molecular target: HLA-DR DRB1*0901 (DR9) (Homo sapiens, UniProt P01903+P01911, A100R/A103E/D57H/D86V/F55Y/F60I/F76Y/I96F/K127E/L162R/M171V/P40D/Q125H/Q99R/R33Q/R42F/S133A/S66N/T210M/V115G/W38K/Y107V/Y59G/Y89S); experiment: biochemical; assay type: binding; settings: DRB1 *0901

| Compound | IC50 [µM] |
| --- | --- |
| CC[C@H](C)[C@H](NC(=O)[C@H](CCCCN)NC(=O)[C@H](CC(=O)O)NC(=O)[C@H](C)N)C(=O)N[C@@H](Cc1ccc(O)cc1)C(=O)N[C@@H](CO)C(=O)N[C@H](C(=O)N[C@@H](CO)C(=O)N[C@@H](CCSC)C(=O)N[C@@H](CCCCN)C(=O)N[C@@H](Cc1c[nH]cn1)C(=O)N1CCC[C@H]1C(=O)N[C@@H](CCC(N)=O)C(=O)N[C@@H](CCC(=O)O)C(=O)N[C@@H](CCSC)C(=O)O)[C@@H](C)CC | 3.51 |
| CC(C)C[C@H](NC(=O)[C@H](CCC(=O)O)NC(=O)[C@H](CCCCN)NC(=O)[C@H](C)N)C(=O)N[C@@H](CCCCN)C(=O)N[C@@H](Cc1ccccc1)C(=O)N[C@H](C(=O)N[C@H](C(=O)N[C@@H](CC(C)C)C(=O)N[C@H](C(=O)N[C@@H](Cc1ccccc1)C(=O)N[C@@H](CCCNC(=N)N)C(=O)N[C@@H](Cc1c[nH]cn1)C(=O)NCC(=O)N[C@@H](CC(=O)O)C(=O)O)C(C)C)[C@@H](C)O)C(C)C | 2.35 |
| CC(C)C[C@H](NC(=O)[C@H](CCC(N)=O)NC(=O)[C@H](CCC(N)=O)NC(=O)[C@H](CC(C)C)NC(=O)[C@@H](NC(=O)[C@H](CCCNC(=N)N)NC(=O)[C@@H](N)CC(C)C)[C@@H](C)O)C(=O)N[C@@H](Cc1ccccc1)C(=O)N[C@@H](CC(C)C)C(=O)N[C@@H](CO)C(=O)N[C@H](C(=O)N[C@@H](CC(C)C)C(=O)N[C@@H](CO)C(=O)N[C@@H](Cc1ccccc1)C(=O)N[C@H](C(=O)O)C(C)C)[C@@H](C)O | 0.166 |
| CC[C@H](C)[C@H](NC(=O)[C@H](CCCNC(=N)N)NC(=O)CNC(=O)[C@@H](N)Cc1ccc(O)cc1)C(=O)N[C@@H](CC(C)C)C(=O)N[C@@H](Cc1c[nH]cn1)C(=O)N[C@@H](Cc1ccc(O)cc1)C(=O)N[C@@H](CC(C)C)C(=O)N[C@@H](CCCCN)C(=O)N[C@@H](C)C(=O)N[C@@H](CCCCN)C(=O)N[C@@H](CCC(=O)O)C(=O)N[C@@H](CC(=O)O)C(=O)N[C@@H](CO)C(=O)N[C@@H](Cc1c[nH]cn1)C(=O)O | 7.58 |

molecular target: HLA-DR DRB1*0701 (DR7) (Homo sapiens, UniProt P01903+P01911, A100R/A102G/A103Q/D57E/D86V/E43K/F76Y/K127E/L162R/M171V/P40G/Q125H/Q99D/R33Q/R42Y/R54Q/S133A/S66F/T210M/V115G/Y107V/Y59L/Y89S); experiment: biochemical; assay type: binding; settings: DRB1 *0701

| Compound | IC50 [µM] |
| --- | --- |
| CC[C@H](C)[C@H](NC(=O)[C@H](Cc1ccc(O)cc1)NC(=O)[C@@H]1CCCN1C(=O)[C@H](CC(=O)O)NC(=O)[C@H](CCC(=O)O)NC(=O)[C@H](CC(C)C)NC(=O)[C@@H](NC(=O)[C@H](C)NC(=O)[C@@H](N)CCC(=O)O)C(C)C)C(=O)N[C@@H](CC(C)C)C(=O)N[C@@H](CC(C)C)C(=O)N[C@H](C(=O)N[C@@H](CO)C(=O)N[C@@H](CO)C(=O)N[C@@H](CCCCN)C(=O)O)C(C)C | 0.933 |
| CC(C)C[C@H](NC(=O)[C@H](Cc1ccccc1)NC(=O)[C@H](CC(N)=O)NC(=O)[C@H](CO)NC(=O)[C@@H](N)CCCCN)C(=O)N[C@@H](CC(N)=O)C(=O)N[C@@H](CS)C(=O)N[C@@H](Cc1ccc(O)cc1)C(=O)N[C@H](C(=O)N[C@@H](CO)C(=O)NCC(=O)N[C@@H](Cc1ccccc1)C(=O)N[C@@H](Cc1c[nH]cn1)C(=O)N1CCC[C@H]1C(=O)N[C@@H](CO)C(=O)N[C@@H](CC(=O)O)C(=O)O)C(C)C | 8.33 |
| CSCC[C@H](NC(=O)[C@H](CCC(=O)O)NC(=O)[C@@H](NC(=O)[C@H](Cc1ccccc1)NC(=O)[C@H](Cc1ccc(O)cc1)NC(=O)[C@H](CCC(=O)O)NC(=O)CNC(=O)[C@H](CCCCN)NC(=O)[C@H](CCC(=O)O)NC(=O)[C@H](Cc1ccccc1)NC(=O)[C@H](Cc1ccc(O)cc1)NC(=O)[C@H](CC(C)C)NC(=O)[C@H](CCC(=O)O)NC(=O)[C@@H](NC(=O)[C@@H](N)CC(C)C)[C@@H](C)O)C(C)C)C(=O)O | 13.1 |
| CC[C@H](C)[C@H](NC(=O)[C@H](CC(=O)O)NC(=O)[C@H](CC(=O)O)NC(=O)[C@H](CC(C)C)NC(=O)CNC(=O)[C@H](CC(C)C)NC(=O)[C@@H](NC(=O)[C@H](CO)NC(=O)[C@H](C)NC(=O)CNC(=O)[C@H](CC(C)C)NC(=O)[C@H](CC(C)C)NC(=O)CNC(=O)[C@@H]1CCCN1C(=O)[C@@H](N)CCCNC(=N)N)C(C)C)C(=O)O | 0.506 |
| CC(C)C[C@H](NC(=O)[C@H](CCCCN)NC(=O)CNC(=O)[C@H](CCCNC(=N)N)NC(=O)[C@H](CC(C)C)NC(=O)[C@H](Cc1ccccc1)NC(=O)[C@H](CC(N)=O)NC(=O)[C@@H](N)CO)C(=O)N[C@@H](CCCCN)C(=O)N[C@@H](CC(C)C)C(=O)N[C@@H](Cc1ccc(O)cc1)C(=O)N[C@H](C(=O)NCC(=O)N[C@@H](CCC(=O)O)C(=O)N[C@@H](C)C(=O)O)[C@@H](C)O | 3.78 |
| CC(C)C[C@H](NC(=O)[C@H](CCCCN)NC(=O)[C@H](Cc1c[nH]cn1)NC(=O)[C@H](CC(C)C)NC(=O)[C@H](CCC(=O)O)NC(=O)[C@H](CCC(N)=O)NC(=O)[C@H](CO)NC(=O)[C@H](CC(C)C)NC(=O)[C@H](CCCCN)NC(=O)CNC(=O)[C@H](CC(C)C)NC(=O)[C@@H](NC(=O)[C@@H](NC(=O)[C@@H](N)[C@@H](C)O)[C@@H](C)O)C(C)C)C(=O)N[C@@H](CCC(N)=O)C(=O)O | 26.1 |
| CSCC[C@H](NC(=O)[C@H](CC(C)C)NC(=O)[C@H](CCC(N)=O)NC(=O)[C@H](CC(=O)O)NC(=O)[C@H](CC(N)=O)NC(=O)[C@H](CCSC)NC(=O)[C@H](CCSC)NC(=O)[C@H](CCCNC(=N)N)NC(=O)[C@H](CC(C)C)NC(=O)[C@@H](N)C(C)C)C(=O)N[C@@H](Cc1ccccc1)C(=O)N[C@@H](CC(C)C)C(=O)N[C@@H](CCC(=O)O)C(=O)N[C@@H](CCCNC(=N)N)C(=O)N[C@@H](C)C(=O)O | 17.3 |
| CC(C)C[C@H](NC(=O)CNC(=O)[C@H](Cc1ccccc1)NC(=O)[C@H](CCC(=O)O)NC(=O)[C@H](CCCCN)NC(=O)[C@@H](N)Cc1c[nH]c2ccccc12)C(=O)N[C@@H](CC(=O)O)C(=O)N[C@@H](CO)C(=O)N[C@H](C(=O)N[C@@H](CCC(=O)O)C(=O)N[C@@H](CC(C)C)C(=O)N[C@@H](C)C(=O)N[C@@H](Cc1c[nH]cn1)C(=O)N[C@@H](Cc1ccc(O)cc1)C(=O)N[C@@H](CC(=O)O)C(=O)O)C(C)C | 3.51 |
| CSCC[C@H](NC(=O)[C@@H](N)CC(N)=O)C(=O)N[C@@H](CO)C(=O)N[C@@H](CC(C)C)C(=O)N[C@@H](CC(C)C)C(=O)N[C@@H](CCCCN)C(=O)N[C@@H](Cc1c[nH]cn1)C(=O)N[C@@H](CCC(N)=O)C(=O)N[C@@H](CO)C(=O)N[C@@H](CC(C)C)C(=O)N[C@@H](CCCNC(=N)N)C(=O)N1CCC[C@H]1C(=O)N[C@@H](CC(=O)O)C(=O)N[C@@H](CCC(=O)O)C(=O)N[C@@H](CC(=O)O)C(=O)O [NMSLLKHQSLRPDED] | 20.6 |
| CC[C@H](C)[C@H](NC(=O)[C@@H](NC(=O)[C@@H](N)CO)C(C)C)C(=O)N[C@@H](CC(C)C)C(=O)N[C@@H](CC(C)C)C(=O)NCC(=O)N[C@@H](CCCNC(=N)N)C(=O)N[C@@H](Cc1c[nH]cn1)C(=O)N[C@@H](CO)C(=O)N[C@@H](CC(C)C)C(=O)N[C@@H](Cc1ccccc1)C(=O)N[C@@H](Cc1c[nH]cn1)C(=O)N1CCC[C@H]1C(=O)N[C@@H](CCC(=O)O)C(=O)N[C@@H](CC(=O)O)C(=O)O [SVILLGRHSLFHPED] | 26.1 |

same assay, conditions: read-out: DRB1 *0701

| Compound | IC50 [µM] |
| --- | --- |
| AALAAAAAAKAAA | 1.32 |
| ALIYNYGLLYCFRKD | 11.9 |
| KKCLNEILIRCHCQ | 16.3 |
| RTVYRDNNPYGVCIM | 8.31 |

molecular target: HLA-DR DRB1*0802 (DR8) (Homo sapiens, UniProt P01903+P01911, A100R/A103L/A169T/F76Y/H45Y/I96F/K41T/L162R/M171V/P40S/Q125H/Q178H/Q39Y/Q99D/R218S/R42G/S66Y/V115G/W38E); experiment: biochemical; assay type: binding; settings: not given

| Compound | IC50 [µM] |
| --- | --- |
| CC(C)[C@H](NC(=O)[C@H](C)NC(=O)CNC(=O)[C@@H](NC(=O)[C@H](C)NC(=O)[C@H](Cc1ccc(O)cc1)NC(=O)[C@H](CCC(=O)O)NC(=O)[C@H](CC(N)=O)NC(=O)[C@@H](N)CCC(=O)O)[C@@H](C)O)C(=O)N[C@@H](CCCNC(=N)N)C(=O)N1CCC[C@H]1C(=O)N[C@@H](Cc1ccccc1)C(=O)N[C@@H](CCC(N)=O)C(=O)N[C@@H](C)C(=O)N[C@@H](C)C(=O)O | 17.3 |
| CC[C@H](C)[C@H](N)C(=O)N[C@@H](CC(C)C)C(=O)N[C@@H](CC(C)C)C(=O)N[C@@H](Cc1c[nH]c2ccccc12)C(=O)N[C@@H](CCC(N)=O)C(=O)N1CCC[C@H]1C(=O)N[C@H](C(=O)N1CCC[C@H]1C(=O)N[C@H](C(=O)N[C@@H](Cc1c[nH]cn1)C(=O)N[C@H](C(=O)N[C@H](C(=O)N1CCC[C@H]1C(=O)N[C@@H](CC(C)C)C(=O)N[C@@H](CO)C(=O)O)C(C)C)[C@@H](C)O)C(C)C)[C@@H](C)CC | 13.1 |
| CC(C)C[C@H](NC(=O)[C@H](CCCNC(=N)N)NC(=O)CNC(=O)[C@H](CC(N)=O)NC(=O)[C@H](CC(C)C)NC(=O)[C@H](CCC(N)=O)NC(=O)[C@H](Cc1c[nH]c2ccccc12)NC(=O)[C@@H](N)CC(C)C)C(=O)N[C@@H](CCC(=O)O)C(=O)N[C@@H](Cc1ccc(O)cc1)C(=O)N[C@@H](CS)C(=O)N[C@@H](CC(C)C)C(=O)N[C@@H](CCCCN)C(=O)N[C@@H](CC(=O)O)C(=O)N[C@@H](CCCNC(=N)N)C(=O)O | > 16.3 |
| CC[C@H](C)[C@H](NC(=O)[C@H](CCC(N)=O)NC(=O)[C@H](Cc1ccc(O)cc1)NC(=O)[C@H](CC(C)C)NC(=O)[C@@H](NC(=O)[C@@H](N)CCSC)[C@@H](C)O)C(=O)N[C@@H](CCC(N)=O)C(=O)N[C@H](C(=O)N[C@@H](CCSC)C(=O)N[C@@H](CCCCN)C(=O)N[C@@H](CCCNC(=N)N)C(=O)N[C@@H](CC(N)=O)C(=O)N[C@@H](CCC(N)=O)C(=O)N[C@@H](CCCCN)C(=O)N[C@@H](CCC(N)=O)C(=O)O)C(C)C | 0.166 |
| CC[C@H](C)[C@H](NC(=O)[C@H](Cc1c[nH]c2ccccc12)NC(=O)[C@@H](NC(=O)[C@@H](N)C(C)C)[C@@H](C)O)C(=O)NCC(=O)N[C@@H](C)C(=O)N[C@@H](C)C(=O)N1CCC[C@H]1C(=O)N[C@@H](CC(C)C)C(=O)N[C@H](C(=O)N[C@@H](CC(C)C)C(=O)N[C@@H](CO)C(=O)N[C@@H](CCCNC(=N)N)C(=O)N[C@H](C(=O)N[C@H](C(=O)O)C(C)C)[C@@H](C)CC)[C@@H](C)CC | 0.731 |

same assay, conditions: read-out: DRB1 *0802

| Compound | IC50 [µM] |
| --- | --- |
| DRTLMSAMTNLAALE | 2.36 |
| KSKFNILSSPLFNNF | 0.152 |

Source: US20060079453A1, “Hla binding peptides and their uses” (priority 2002, published 2006)
